Entries after “also recorded” stand apart in the source; their conditions may differ.
Legend:
[1] = system: β1 integrin mRNA expression in MM.1S human Myeloma cells; assay: RT-PCR analysis of β1 integrin mRNA expression in MM.1S myeloma cells cocultured with ST2 stromal cells; format: cell-based
[2] = system: murine IL-6 production by ST2 stromal cells; assay: IL-6 production by ST2 stromal cells in contact with MM.1S cells (murine IL-6 ELISA); format: cell-based
[3] = system: osteoclast formation in murine bone marrow cultures
[4] = system: adhesion of MM.1S cells to ST2 marrow stromal cells; assay: Adhesion of myeloma cells to stromal cells; format: cell-based, human MM.1S / murine ST2

C[C@@H]1CN(Cc2ccc(F)cc2)CCN1C(=O)COc1ccc(Cl)cc1NC(N)=O [BX471, (2R)-1-((4-chloro-2-(ureido)phenoxy)methyl)carbonyl-2-methyl-4-(4-fluorobenzyl)piperazine]
β1 integrin mRNA expression increased by rhMIP-1a [1]: significantly decreased; also recorded: downregulated | IL-6 production by ST2 marrow stromal cells in contact with MM.1S myeloma cells [2]: significantly inhibited | Murine TRAP (+) OCL formation [3]: dose-dependently inhibited | osteoclast formation stimulated with MIP-1A [3]: significantly inhibited | Adhesion of MM.1S cells to ST2 cells [4]: significantly decreased | adhesion of MM.1S cells to ST2 marrow stromal cells [4]: significantly inhibited

From US20050192282A1, “Chemokine inhibiting piperazine derivatives and their use to treat multiple myeloma” (Schering Aktiengesellschaft, priority 2004, published 2005)
